Tested on: Saccharomyces cerevisiae
Test: Relative antifungal activity (against Saccharomyces cerevisiae) compared to AbA

antifungal AbA/analogue ratio	Compound
1	CC[C@H](C)[C@H]1OC(=O)[C@H](C(C)(C)O)N(C)C(=O)[C@H](CC(C)C)NC(=O)[C@H](C(C)C)N(C)C(=O)[C@H](C(C)C)NC(=O)[C@@H]2CCCN2C(=O)[C@H](Cc2ccccc2)N(C)C(=O)[C@H](Cc2ccccc2)NC(=O)[C@H](C(C)C)N(C)C1=O
0.016	CC[C@H](C)[C@@H]1NC(=O)[C@@H]2CCCN2C(=O)[C@@H](C)N(C)C(=O)[C@H](Cc2ccc(O)cc2)NC(=O)[C@H](C(C)C)N(C)C(=O)[C@@H]([C@@H](C)CC)OC(=O)[C@H](C(C)(C)O)N(C)C(=O)[C@H](CC(C)C)NC(=O)[C@H](C(C)C)N(C)C1=O
